From patent publication US11020462B2, “Methods for treatment of diseases” (SERPIN PHARMA, LLC, priority 2015, dated 2021)

By UniProt entry, the sequences of proteins in these tests, tags left out. Chains listed by the source or under a name are the forms on record and can include a tag or linker. Residues count along the entry.
UniProt Q07954, with tags, fused parts or gaps limits assumed, species assumed: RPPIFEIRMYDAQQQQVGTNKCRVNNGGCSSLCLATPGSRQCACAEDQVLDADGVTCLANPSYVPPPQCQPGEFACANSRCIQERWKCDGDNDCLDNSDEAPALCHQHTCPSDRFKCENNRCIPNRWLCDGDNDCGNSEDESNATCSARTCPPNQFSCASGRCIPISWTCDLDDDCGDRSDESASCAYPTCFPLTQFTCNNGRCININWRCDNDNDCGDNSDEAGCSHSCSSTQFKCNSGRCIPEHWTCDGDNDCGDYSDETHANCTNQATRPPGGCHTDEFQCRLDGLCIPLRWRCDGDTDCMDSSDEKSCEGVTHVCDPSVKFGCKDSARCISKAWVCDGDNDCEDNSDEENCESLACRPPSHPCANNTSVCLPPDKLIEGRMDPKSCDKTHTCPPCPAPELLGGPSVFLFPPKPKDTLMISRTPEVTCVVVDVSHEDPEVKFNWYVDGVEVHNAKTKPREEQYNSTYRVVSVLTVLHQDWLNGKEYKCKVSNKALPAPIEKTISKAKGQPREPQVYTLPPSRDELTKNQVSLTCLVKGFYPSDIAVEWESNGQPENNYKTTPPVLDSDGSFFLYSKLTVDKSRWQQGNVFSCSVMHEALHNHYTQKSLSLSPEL
UniProt Q91ZX7, 20-4545: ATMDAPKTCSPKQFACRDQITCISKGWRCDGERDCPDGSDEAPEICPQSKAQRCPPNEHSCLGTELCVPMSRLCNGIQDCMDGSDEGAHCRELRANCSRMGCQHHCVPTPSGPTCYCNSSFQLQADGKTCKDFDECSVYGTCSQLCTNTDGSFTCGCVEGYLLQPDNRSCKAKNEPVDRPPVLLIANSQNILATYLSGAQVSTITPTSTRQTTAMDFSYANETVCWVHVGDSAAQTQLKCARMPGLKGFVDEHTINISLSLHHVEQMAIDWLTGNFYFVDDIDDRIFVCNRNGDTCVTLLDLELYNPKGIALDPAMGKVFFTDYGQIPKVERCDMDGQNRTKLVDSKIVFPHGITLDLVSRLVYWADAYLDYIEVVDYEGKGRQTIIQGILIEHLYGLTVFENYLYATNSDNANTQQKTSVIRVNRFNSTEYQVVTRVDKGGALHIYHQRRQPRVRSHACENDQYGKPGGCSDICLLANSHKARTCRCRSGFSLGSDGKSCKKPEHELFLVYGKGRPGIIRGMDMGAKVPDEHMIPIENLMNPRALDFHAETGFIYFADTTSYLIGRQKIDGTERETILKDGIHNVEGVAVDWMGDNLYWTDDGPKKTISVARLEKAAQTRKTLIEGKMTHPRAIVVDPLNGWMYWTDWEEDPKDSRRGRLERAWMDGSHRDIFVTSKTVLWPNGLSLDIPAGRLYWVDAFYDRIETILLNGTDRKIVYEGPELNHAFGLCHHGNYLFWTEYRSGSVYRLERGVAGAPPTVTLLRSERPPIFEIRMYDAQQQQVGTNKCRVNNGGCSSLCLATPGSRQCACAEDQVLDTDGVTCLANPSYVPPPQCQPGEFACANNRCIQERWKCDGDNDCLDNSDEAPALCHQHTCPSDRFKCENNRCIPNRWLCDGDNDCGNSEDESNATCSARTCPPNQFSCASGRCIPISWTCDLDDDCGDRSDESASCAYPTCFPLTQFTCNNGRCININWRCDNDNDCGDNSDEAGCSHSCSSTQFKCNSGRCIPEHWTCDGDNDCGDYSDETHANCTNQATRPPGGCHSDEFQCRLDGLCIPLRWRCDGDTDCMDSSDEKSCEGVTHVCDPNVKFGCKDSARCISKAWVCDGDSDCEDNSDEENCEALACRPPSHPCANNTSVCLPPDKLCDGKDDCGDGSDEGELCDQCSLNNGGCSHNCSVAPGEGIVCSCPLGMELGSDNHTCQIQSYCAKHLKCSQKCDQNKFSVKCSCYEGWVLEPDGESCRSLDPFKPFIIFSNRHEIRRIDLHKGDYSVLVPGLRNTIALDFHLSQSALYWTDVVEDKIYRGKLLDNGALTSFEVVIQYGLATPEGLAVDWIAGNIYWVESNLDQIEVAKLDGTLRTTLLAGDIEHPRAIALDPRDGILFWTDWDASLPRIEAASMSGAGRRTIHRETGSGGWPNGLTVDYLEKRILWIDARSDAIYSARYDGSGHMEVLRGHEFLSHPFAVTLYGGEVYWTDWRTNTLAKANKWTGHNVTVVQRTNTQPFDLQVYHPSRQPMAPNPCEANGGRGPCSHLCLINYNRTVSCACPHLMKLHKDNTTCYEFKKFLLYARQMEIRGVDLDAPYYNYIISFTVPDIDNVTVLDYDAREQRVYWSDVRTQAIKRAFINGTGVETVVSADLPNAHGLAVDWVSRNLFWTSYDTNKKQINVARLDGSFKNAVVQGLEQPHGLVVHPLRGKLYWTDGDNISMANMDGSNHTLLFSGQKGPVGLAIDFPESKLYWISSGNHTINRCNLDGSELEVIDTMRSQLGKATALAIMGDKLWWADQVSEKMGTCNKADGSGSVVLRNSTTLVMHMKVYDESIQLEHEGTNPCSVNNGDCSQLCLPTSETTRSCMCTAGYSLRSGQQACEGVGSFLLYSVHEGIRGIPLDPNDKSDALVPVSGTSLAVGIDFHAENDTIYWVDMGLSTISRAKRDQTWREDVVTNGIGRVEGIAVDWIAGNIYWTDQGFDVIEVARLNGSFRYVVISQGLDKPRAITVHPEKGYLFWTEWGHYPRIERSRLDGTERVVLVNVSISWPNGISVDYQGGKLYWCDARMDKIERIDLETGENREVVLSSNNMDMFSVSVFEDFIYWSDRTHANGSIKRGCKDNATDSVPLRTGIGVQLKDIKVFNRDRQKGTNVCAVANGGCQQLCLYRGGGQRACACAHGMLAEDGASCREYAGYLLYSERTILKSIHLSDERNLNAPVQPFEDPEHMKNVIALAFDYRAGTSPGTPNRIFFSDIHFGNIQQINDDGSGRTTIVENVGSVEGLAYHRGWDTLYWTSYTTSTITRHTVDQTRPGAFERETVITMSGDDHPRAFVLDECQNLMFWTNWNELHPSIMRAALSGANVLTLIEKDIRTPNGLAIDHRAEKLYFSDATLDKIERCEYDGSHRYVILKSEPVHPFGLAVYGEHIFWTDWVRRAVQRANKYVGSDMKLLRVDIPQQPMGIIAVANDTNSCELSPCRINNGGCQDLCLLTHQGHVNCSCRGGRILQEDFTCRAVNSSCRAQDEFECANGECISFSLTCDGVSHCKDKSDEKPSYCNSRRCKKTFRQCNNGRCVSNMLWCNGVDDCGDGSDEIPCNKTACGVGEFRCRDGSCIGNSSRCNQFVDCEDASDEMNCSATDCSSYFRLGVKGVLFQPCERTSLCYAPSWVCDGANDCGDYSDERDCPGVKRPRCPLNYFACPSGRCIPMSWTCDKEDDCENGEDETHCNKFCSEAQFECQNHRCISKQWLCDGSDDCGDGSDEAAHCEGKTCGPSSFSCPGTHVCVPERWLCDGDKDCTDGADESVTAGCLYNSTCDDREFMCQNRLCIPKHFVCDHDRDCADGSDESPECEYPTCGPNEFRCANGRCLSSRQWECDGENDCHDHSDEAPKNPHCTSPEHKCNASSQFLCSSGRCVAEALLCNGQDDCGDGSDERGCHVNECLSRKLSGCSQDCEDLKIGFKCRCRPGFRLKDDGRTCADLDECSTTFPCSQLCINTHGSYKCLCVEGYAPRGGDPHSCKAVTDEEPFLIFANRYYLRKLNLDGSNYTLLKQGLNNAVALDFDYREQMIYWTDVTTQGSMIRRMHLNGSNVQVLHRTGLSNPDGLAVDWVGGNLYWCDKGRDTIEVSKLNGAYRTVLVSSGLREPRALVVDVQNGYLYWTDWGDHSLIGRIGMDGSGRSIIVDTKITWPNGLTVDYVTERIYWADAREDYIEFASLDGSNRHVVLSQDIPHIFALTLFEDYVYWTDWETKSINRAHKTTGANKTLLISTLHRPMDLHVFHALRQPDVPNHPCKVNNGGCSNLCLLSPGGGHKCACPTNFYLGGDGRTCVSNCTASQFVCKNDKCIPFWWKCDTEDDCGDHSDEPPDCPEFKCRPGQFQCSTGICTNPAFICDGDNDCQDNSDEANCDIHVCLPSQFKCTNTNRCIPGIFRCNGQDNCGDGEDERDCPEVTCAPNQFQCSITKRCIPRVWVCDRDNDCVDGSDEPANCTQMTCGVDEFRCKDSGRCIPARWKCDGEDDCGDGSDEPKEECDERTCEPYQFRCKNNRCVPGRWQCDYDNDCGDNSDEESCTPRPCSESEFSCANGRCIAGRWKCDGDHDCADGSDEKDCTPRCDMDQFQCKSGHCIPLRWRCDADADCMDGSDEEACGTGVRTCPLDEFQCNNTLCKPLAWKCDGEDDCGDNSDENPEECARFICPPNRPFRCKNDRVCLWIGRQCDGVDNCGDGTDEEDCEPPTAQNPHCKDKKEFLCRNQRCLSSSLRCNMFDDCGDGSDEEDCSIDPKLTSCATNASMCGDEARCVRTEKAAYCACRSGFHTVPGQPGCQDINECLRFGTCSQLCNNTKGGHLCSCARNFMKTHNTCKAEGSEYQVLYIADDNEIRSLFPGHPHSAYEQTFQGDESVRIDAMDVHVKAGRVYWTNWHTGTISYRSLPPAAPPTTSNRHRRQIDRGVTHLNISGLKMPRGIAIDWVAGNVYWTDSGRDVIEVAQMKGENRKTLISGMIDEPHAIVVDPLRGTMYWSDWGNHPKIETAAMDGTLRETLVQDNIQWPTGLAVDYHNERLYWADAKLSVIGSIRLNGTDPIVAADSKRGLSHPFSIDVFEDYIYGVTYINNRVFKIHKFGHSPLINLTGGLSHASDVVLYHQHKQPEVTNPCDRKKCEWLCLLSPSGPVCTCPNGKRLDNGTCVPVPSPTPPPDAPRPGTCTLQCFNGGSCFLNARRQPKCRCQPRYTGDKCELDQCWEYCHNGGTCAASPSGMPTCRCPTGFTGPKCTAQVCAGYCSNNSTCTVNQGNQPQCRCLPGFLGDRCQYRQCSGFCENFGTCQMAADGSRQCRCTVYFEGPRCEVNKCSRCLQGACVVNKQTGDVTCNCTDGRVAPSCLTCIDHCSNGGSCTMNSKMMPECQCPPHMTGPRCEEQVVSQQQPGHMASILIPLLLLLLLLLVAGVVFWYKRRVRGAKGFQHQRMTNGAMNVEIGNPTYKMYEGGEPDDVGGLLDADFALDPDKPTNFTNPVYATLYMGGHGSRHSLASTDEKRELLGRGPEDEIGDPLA

Assays:
[1] = test system: experimental acute myocardial infarction (AMI) in the mouse; experiment: experimental acute myocardial infarction in the mouse: coronary artery ligation 30 minutes, then reperfusion; format: in vivo
Procedure: In order to examine the effects of SP163M in AMI, the peptide was tested in the same mouse model previously used for AAT. Briefly, adult male ICR mice underwent coronary artery ligation inducing myocardial ischemia for 30 minutes followed by reperfusion. SP16 at 100 μg dose or matching volume of NaCl 0.9% solution was given at time of reperfusion.
Ten-weeks-old male ICR (CD1) mice underwent surgical coronary artery ligation for 30 minutes, followed by reperfusion for 24 hours, to simulate the scenario of acute myocardial infarction (AMI) treated with reperfusion therapies. A subgroup of mice underwent sham surgery in which the coronary artery was identified and isolated but not ligated.
SP163M—active peptide- or a control solution—vehicle—were administered at a dose of 100 μg/mouse i.p. at reperfusion
Infarct size was measured at pathology with triphenyltetrazolium chloride(TTC)/Evans blue staining, and by measuring plasma troponin I levels at 24 hours. Evans blue was retrogradely injected through the aorta after re-ligation of the coronary artery knot to identify the non-risk myocardium (blue). TTC was used to stain viable myocardium (red).
Echocardiography was used to assess left ventricular (LV) fractional shortening, as a measure of systolic function in vivo.
Ten-weeks-old male ICR (CD1) mice underwent surgical coronary artery ligation for 30 minutes, followed by reperfusion for 24 hours, to simulate the scenario of AMI treated with reperfusion therapies.
SP163M—active peptide- or SP34—control peptide—were administered at a dose of 100 μg/mouse i.p. at the moment of the reperfusion or with 30′ of delay, to simulate a clinical scenario in which a delay between reperfusion and pharmacologic therapy is likely to occur.
Infarct size was measured with TTC/Evans blue staining. Echocardiography was used to assess left ventricular (LV) fractional shortening, as a measure of systolic function in vivo. Each group included at least 6 mice.
Ten-weeks-old ICR mice underwent surgical coronary artery ligation for 30 minutes, followed by reperfusion for 24 hours. SP16 was administered at 2 different doses (10 or 100 ug) with 30′ of delay. The control peptide SP34 (100 μg) or the vehicle solution were used as controls.
Infarct size was measured with TTC/Evans blue staining. Transthoracic echocardiography was used to assess left ventricular (LV) fractional shortening. Each group included at least 6 mice.

healthy mouse = experiment: cardiac contractility in the healthy mouse (echocardiography, isoproterenol challenge); format: in vivo
Procedure: To test the effect of SP163M on heart contractility the following study was conducted. […] SP34 is a peptide with a scrambled sequence of SP16 and is used as a control peptide.
Ten-weeks-old ICR mice were treated with SP163M (100 μg/mouse i.p.), the control peptide SP34 (100 μg/mouse) or the vehicle solution. Echocardiography was used to assess left ventricular (LV) fractional shortening at baseline and after 180 minutes.
Cardiac contractility reserve was tested with isoproterenol challenge (10 ng/kg i.p.), measuring the increase in LV fractional shortening within 5′ of treatment. Each group included at least 6 mice.

[2] = test system: LRP1 on Raw264.7 murine macrophages; experiment: LRP1 expression on Raw264.7 murine macrophages by flow cytometry; format: cell-based; settings: 50, 100 or 200 ug/ml for 3 hrs, FIG. 10
Procedure: Macrophages were plated 0.2×10^6 in a 24 well plate and grown to 70% confluence. Cells were treated with vehicle (red), SP16 at 50 (Purple), 100 (Green) or 200 ug/ml (Blue), scrambled control (Orange) or COG133 (ApoE peptide) (Pink) for 3 hrs before harvesting with cold PBS 5 mM EDTA. Samples were labeled with anti-LRP1 (abeam ab92544) and stained with Alexa FluorTM 488 rabbit secondary (invitrogen) and then analyzed by flow cytometry (Guava EasyCyteTM flow cytometer). The mean fluorescent intensity (MFI) normalized to the control is shown. (For each sample >10,000 events were collected).

recombinant LRP1 protein = molecular target: T1, recombinant LRP1 protein (Homo sapiens, UniProt Q07954); experiment: in vitro binding of biotin-peptide to recombinant LRP1 (streptavidin bead pull-down, western blot)
T1 construct: purchased R&D Systems, Minneapolis, Minn
Procedure: An in vitro assay was performed to examine SP163M binding to LRP1. To perform the assay, recombinant LRP1 protein (1 μg/ml) (R&D Systems, Minneapolis, Minn.) was incubated on ice in the presence of biotin-SP163M (1-5 μg/ml) at 4° C. for 1 hour. This mixture was then incubated with 1 mg/ml M280 Streptavidin Dynabeads (Invitrogen, Carlsbad, Calif.) for 1.5 hours at 4° C. Dynabeads were washed in PBS+0.1% Tween20 and boiled in SDS loading buffer for 5 minutes. The supernatants were separated on NuPAGE 4-12% Bis-Tris gels (Invitrogen) and transferred to nitrocellulose membranes. The membranes were probed with anti-LRP1 (LRP-1 Cluster II Affinity Purified Polyclonal Ab, R&D, Minneapolis, Minn.) and incubated overnight at 4° C. The membranes were then washed 3 times with TBS-T and incubated with secondary HRP-coupled anti-goat diluted 1:10,000 in 5% milk TBS-T. The western blots were visualized by chemiluminescence using SuperSignal West Femto Maximum Sensitivity Substrate kit (ThermoScientific) and a Bio Rad Molecular Imager ChemiDoc XRS system (Bio-Rad, Hercules, Calif.).

[3] = test system: NF-kB signaling in THP1-XBlue-MD2-CD14 cells; experiment: NF-kB inducible SEAP reporter assay in THP1-XBlue-MD2-CD14 cells; format: cell-based
Procedure: THP1-XBlue™-MD2-CD14 cells (InvivoGen, San Diego, Calif.) were used in an in vitro assay to examine whether SP163M is an agonist of LRP. The THP1-XBlue™-MD2-CD14 cells were maintained in RPMI 1640 medium (Thermo Scientific) supplemented with 10% heat inactivated FBS, 1% Pen-Strep, 100 ug/ml Normocin™, 200 ug/ml Zeocin™, and 250 μg/ml of G418. The cell lines were maintained in 5% C02 at 37° C. and in accordance with the distributor's guidelines.
The THP1-XBlue™-MD2-CD14 cells were seeded at 1×10^5 cells/well in a 96-well cell culture plate. The cells were treated with peptide or a scrambled control peptide (100 μg/ml), for 30 minutes prior to the addition of LPS (5 ng/ml) or GP96 (100 μM). After an 18-24 hour incubation at 37° C., 20 μl of supernatant was transferred to 180 μl of QUANTI-Blue™ SEAP detection medium. NF-κB inducible SEAP levels were detected by measuring the absorbance. In experiments blocking LRP1, the anti-LRP1 antibody (125 μg/ml) (clone 5A6, Molecular Innovations, Novi, Mich.) or Receptor-Associated Protein (RAP) (1 μM) (Molecular Innovations) were used 30 minutes prior to the addition of the peptide.

LRP1 = molecular target: T2, LRP1 (Mus musculus, UniProt Q91ZX7); experiment: experimental AMI in mice pretreated with LRP1 blocking antibody; format: in vivo; settings: LRP1 antibody clone 5A6 3 mg/kg 16 hours before surgery; SP163M 100 μg or AAT 60 mg/kg i.p. after reperfusion, FIG. 14
T2 construct: from tissue; host or cells: living CD1 mice (heart, in vivo)
Procedure: To examine the whether LRP1 mediates the cardioprotective effect of SP163M, groups of mice were treated with an LRP1 blocking antibody prior to experimental AMI. The resulting infarct size and LV systolic function were measured
Adult out-bred male CD1 mice (10 weeks of age) supplied by Harlan Sprague Dawley (Indianapolis, Ind.) were used in this study. A single operator (S.T.) skilled in coronary artery surgical ligation in mice performed all surgeries. Experimental AMI was induced by transient coronary artery ligation of the left anterior descending coronary artery for 30 minutes to induce ischemia of the anterior wall and the apex (visible as pallor) followed by reperfusion, and leading to an infarct involving approximately 15% of the left ventricle. […]
Infarct size (reported in FIG. 14A) was measured as previously described. […] The infarcted tissue (appearing white) and the viable tissue (bright red) were measured by computer morphometry using Image Pro Plus 6.0 software (Media Cybernetics, Silver Spring, Md.). […]
LV systolic function (reported in FIG. 14B) was determined as well. […] We measured the left ventricular (LV) end-diastolic and end-systolic areas at B-Mode and the LV end-diastolic diameter (LVEDD), LV end-systolic diameters (LVESD) at M-Mode. LV fractional shortening (FS) and LV ejection fraction (EF) were calculated. […]

With `CCCC[C@H](NC(=O)[C@H](CC(C)C)NC(=O)[C@H](Cc1ccccc1)NC(=O)[C@@H](NC(=O)[C@H](Cc1ccccc1)NC(=O)[C@@H]1CCCN1C(=O)[C@H](CCCCN)NC(=O)[C@H](CC(N)=O)NC(=O)[C@H](Cc1ccccc1)NC(=O)[C@H](CCCCN)NC(=O)[C@@H](NC(C)=O)C(C)C)C(C)C)C(=O)N[C@H](C(=O)N[C@@H](CCC(=O)O)C(=O)N[C@@H](CCC(N)=O)C(=O)N[C@@H](CC(N)=O)C(=O)N[C@H](C(=O)N[C@@H](CCCCN)C(N)=O)[C@@H](C)O)[C@@H](C)CC` [SP163M] the “efficacy as measured by infarct size” value ([1]; 10 μg dose (dose reduced by 90%), FIG. 6A) was “effective”, the “efficacy as measured by LV systolic function” value ([1]; 10 μg dose (dose reduced by 90%), FIG. 6B) was “effective” and the “plasma levels of cardiac specific troponin I” value ([1]; 100 μg/mouse i.p. at reperfusion, 24 hours, FIG. 4B) was “significantly reduced; also recorded: reducing plasma levels of cardiac specific troponin I”. The “myocardial infarct size (in words)” value ([1]; 100 μg/mouse i.p. at reperfusion, FIG. 4A) was “reducing myocardial infarct size”, the “left ventricular systolic function (LV fractional shortening, echocardiography)” value ([1]; 100 μg/mouse i.p. at reperfusion, FIG. 4C) was “preserving the left ventricular systolic function” and the infarct size ([1]; 100 μg/mouse i.p. with 30′ of delay after reperfusion, FIG. 5A) was “significantly reduced infarct size”. The LV fractional shortening ([1]; 100 μg/mouse i.p. with 30′ of delay after reperfusion, FIG. 5B) was “preservation of LV fractional shortening”, the “infarct size, in a dose-dependent fashion” value ([1]; 10 or 100 μg with 30′ of delay, FIG. 6A) was “reduces infarct size” and the “LV fractional shortening, in a dose-dependent fashion” value ([1]; 10 or 100 μg with 30′ of delay, FIG. 6B) was “preserves LV fractional shortening”. The “infarct size in the AMI model (general statement)” value ([1]; mouse AMI model, dose not given at the place) was “reduces the size of the infarct”, the “anti-inflammatory activity compared with AAT” value ([1]; preclinical models of AMI) was “equal or better anti-inflammatory activity” and the “cardiac systolic function at rest (LV fractional shortening)” value (healthy mouse; 100 μg/mouse i.p., baseline and after 180 minutes, FIG. 7 left panel) was “does not alter cardiac systolic function”. For the same molecule, the “cardiac systolic function after isoproterenol challenge (contractile reserve)” value (healthy mouse; 100 μg/mouse i.p., isoproterenol 10 ng/kg i.p., FIG. 7 right panel) was “does not alter cardiac systolic function”, the heart contractility (healthy mouse; FIG. 7) was “not effect heart contractility; also recorded: does not affect heart contractility” and the “expression of LRP1 (mean fluorescent intensity), dose-dependent” value [2] was “increase expression of LRP1”. The “binding to LRP1 (statement without method)” value (recombinant LRP1 protein) was “bind LRP1”, the “binding to LRP1” value (recombinant LRP1 protein; biotin-peptide 1-5 μg/ml, LRP1 1 μg/ml, FIG. 12B) was “binds to LRP1” and the LRP1 agonism [3] was “agonist”. The “protective effects (infarct size, LV systolic function) after LRP1 blocking antibody” value (LRP1) was “eliminates the cardioprotective effects; also recorded: eliminated the protective effects”.

“Also recorded” adds a separate entry of the source.
